Amino acid sequences for entries named in this document (tags omitted).
UniProt P30536, whole entry: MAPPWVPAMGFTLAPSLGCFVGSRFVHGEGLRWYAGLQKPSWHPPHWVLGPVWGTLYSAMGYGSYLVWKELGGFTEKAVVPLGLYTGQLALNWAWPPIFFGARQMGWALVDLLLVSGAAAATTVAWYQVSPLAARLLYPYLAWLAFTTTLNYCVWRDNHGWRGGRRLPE

In ChEMBL document CHEMBL1150372, “Synthesis, fluorine-18 radiolabeling, and in vitro characterization of 1-iodophenyl-N-methyl-N-fluoroalkyl-3-isoquinoline carboxamide derivatives as potential PET radioligands for imaging peripheral benzodiazepine receptor” (Bioorg Med Chem, 2008):

Biological target: Translocator protein (Homo sapiens, UniProt P30536)
Test: Binding affinity to human PBR

Kd: 2 nM
Compound: CCC(C)N(C)C(=O)c1cc2ccccc2c(-c2ccccc2Cl)n1 (stereo unspecified) [PK-11195]
